Consider 14 compounds from patent EP4825857A1, “TRICYCLIC FUSED HETEROCYCLIC PDE3/4 DUAL INHIBITOR, AND PREPARATION AND USE THEREFOR” (dated 2026).

Protein sequences, listed by entry. Tags and fused reporters are not part of them. Chains listed by the source or under a name are the forms on record and can include a tag or linker. Residues count along the entry.
UniProt Q14432, whole entry: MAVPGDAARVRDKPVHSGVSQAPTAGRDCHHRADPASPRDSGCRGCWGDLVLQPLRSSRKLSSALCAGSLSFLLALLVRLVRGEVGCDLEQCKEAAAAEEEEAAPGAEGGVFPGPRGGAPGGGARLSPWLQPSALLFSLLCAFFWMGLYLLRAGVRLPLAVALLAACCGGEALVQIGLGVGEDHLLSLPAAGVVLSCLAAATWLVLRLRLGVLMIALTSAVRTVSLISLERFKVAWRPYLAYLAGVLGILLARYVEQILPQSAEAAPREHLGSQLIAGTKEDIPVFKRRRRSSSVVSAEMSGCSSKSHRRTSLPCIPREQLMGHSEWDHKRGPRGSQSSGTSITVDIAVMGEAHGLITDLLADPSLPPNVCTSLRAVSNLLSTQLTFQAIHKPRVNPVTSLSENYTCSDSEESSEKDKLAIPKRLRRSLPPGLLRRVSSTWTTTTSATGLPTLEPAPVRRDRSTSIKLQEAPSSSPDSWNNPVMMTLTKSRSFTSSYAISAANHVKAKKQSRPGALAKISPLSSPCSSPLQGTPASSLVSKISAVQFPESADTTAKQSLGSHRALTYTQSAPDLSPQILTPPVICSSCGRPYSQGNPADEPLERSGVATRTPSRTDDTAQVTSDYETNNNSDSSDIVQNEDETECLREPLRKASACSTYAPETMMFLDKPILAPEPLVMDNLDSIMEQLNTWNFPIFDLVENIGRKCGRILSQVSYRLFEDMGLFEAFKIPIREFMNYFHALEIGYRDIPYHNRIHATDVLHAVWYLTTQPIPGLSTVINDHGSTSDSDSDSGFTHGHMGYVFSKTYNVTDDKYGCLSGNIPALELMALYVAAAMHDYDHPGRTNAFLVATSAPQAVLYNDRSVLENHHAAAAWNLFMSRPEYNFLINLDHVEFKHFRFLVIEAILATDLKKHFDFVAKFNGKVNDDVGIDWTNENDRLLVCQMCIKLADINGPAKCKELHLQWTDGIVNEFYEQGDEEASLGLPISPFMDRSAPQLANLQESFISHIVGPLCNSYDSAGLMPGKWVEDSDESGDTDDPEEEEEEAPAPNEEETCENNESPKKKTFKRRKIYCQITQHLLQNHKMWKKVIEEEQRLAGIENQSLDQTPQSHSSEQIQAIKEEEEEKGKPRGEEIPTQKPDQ
UniProt Q13370, whole entry: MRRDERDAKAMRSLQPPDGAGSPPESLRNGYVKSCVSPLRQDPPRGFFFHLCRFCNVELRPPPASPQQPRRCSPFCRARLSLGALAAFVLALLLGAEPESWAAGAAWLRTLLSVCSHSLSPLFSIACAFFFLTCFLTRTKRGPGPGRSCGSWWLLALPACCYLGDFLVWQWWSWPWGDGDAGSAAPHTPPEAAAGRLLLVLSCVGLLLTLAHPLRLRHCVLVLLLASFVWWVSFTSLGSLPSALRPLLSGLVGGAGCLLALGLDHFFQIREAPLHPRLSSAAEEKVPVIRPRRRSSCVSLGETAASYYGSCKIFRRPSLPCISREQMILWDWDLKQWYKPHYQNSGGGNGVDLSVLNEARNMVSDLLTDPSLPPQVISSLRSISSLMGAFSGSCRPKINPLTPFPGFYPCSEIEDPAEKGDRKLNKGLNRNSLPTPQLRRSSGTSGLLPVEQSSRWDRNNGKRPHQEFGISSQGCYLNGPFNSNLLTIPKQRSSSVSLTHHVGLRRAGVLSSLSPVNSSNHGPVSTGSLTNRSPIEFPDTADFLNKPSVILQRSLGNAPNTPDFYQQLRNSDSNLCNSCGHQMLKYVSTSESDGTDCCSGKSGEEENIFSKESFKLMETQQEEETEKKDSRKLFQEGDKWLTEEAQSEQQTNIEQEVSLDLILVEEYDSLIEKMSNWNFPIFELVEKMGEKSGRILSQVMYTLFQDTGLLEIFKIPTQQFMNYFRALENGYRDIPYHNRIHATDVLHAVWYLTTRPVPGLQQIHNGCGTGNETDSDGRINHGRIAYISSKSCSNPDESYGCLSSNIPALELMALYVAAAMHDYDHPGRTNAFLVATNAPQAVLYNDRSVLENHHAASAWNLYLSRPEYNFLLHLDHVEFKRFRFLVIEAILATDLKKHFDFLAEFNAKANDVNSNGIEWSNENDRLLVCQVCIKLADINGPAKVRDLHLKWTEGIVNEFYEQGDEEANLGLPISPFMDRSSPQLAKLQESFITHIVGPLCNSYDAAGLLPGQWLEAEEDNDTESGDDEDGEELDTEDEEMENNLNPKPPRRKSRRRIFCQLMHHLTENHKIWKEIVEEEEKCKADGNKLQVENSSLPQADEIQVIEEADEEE
UniProt Q07343, 1-564 with tags or gaps: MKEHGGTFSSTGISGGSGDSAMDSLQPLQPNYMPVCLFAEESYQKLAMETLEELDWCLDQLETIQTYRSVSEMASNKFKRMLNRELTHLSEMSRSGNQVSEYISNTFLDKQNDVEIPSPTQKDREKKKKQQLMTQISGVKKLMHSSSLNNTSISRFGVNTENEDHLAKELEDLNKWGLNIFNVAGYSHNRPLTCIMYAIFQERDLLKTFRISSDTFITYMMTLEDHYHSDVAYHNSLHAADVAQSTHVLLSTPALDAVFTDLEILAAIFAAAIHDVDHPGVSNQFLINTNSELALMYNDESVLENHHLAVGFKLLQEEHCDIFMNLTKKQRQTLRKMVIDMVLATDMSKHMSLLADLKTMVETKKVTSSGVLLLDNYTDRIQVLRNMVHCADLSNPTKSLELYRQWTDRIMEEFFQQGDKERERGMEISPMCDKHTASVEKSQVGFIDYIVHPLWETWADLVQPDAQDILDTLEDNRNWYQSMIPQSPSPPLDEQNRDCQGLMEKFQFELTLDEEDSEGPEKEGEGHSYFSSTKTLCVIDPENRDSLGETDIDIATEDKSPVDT
UniProt Q08499, 303-809 limits assumed: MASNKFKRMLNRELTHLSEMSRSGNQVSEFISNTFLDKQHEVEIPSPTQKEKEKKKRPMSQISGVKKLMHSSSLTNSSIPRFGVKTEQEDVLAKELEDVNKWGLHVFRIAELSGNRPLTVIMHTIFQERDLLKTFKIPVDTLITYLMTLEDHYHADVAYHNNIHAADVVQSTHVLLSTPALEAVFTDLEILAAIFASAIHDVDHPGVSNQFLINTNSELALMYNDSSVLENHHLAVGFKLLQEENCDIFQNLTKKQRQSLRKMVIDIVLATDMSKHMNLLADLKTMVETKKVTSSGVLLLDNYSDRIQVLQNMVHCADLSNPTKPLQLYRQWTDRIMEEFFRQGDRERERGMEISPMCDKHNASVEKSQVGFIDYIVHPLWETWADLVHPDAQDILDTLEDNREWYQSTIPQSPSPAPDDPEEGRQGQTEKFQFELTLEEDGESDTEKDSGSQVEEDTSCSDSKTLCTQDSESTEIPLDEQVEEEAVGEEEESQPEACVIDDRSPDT

What all share (test): PDE enzyme activity inhibition assay (fluorescence polarization, IMAP)
(In fluorescence polarisation assays a small probe gives low polarisation when free and higher when bound to something large.)

One assay has as its target PDE3A (Homo sapiens, UniProt Q14432). Particulars: read-out: PDE3A; FP assay, Table 4. The protocol: (§1) The inhibitory activity of the compounds of the Examples against PDE enzymes was evaluated using a fluorescence polarization (FP) assay. RPL-554, the compound disclosed in Example 1 of CN100415743C, was used as the positive control. [drawing 182]
(§2) In a reaction buffer, i.e., 1× IMAP Reaction Buffer containing 0.1% BSA and supplemented with 1 mM DTT, a PDE enzyme solution and a substrate solution (FAM-cyclic AMP/cyclic AMP) were prepared. The positive control was prepared at an initial concentration of 1/10 µM for the PDE assay and was diluted 3-fold, with a 10+0 dose design. Using the acoustic liquid handling technology (Echo 655), 0.05 µL of each compound in 100% DMSO was transferred into a 384-well plate (Corning 4514), followed by centrifugation at 1,000 rpm for 1 min. Then, 2.5 µL of the PDE enzyme solution was transferred into the 384-well reaction plate, followed by centrifugation at 1,000 rpm for 1 min and incubation at 25 °C for 10 min. Subsequently, 2.5 µL of the substrate solution was transferred into the 384-well reaction plate, followed by centrifugation at 1,000 rpm for 1 min and incubation at 25 °C for 60 min. Then, 15 µL of a binding reagent mixture was transferred into the 384-well reaction plate, followed by centrifugation at 1,000 rpm for 1 min and incubation at 25 °C for 60 min. Finally, the FP signal was measured using a BMG PHERAstar FSX plate reader. IC50 values and nonlinear regression curve fitting were obtained using GraphPad Prism software.
(§3) The inhibitory activities of the compounds against PDE enzymes were evaluated using the FP method, with RPL-554 and compound D7 as control compounds. The detailed test method was the same as that described in PDE Enzyme Activity Inhibition Assay I. The structural formulae of RPL-554 and compound D7 are shown below. [drawing 183]

The target of a further assay is PDE3B (Homo sapiens, UniProt Q13370). Particulars: read-out: PDE3B; FP assay, Table 4. The protocol: as §1, §2, §3
A further assay concerns the target PDE4B2 (Homo sapiens, UniProt Q07343). Particulars: read-out: PDE4B2; FP assay, Table 4. The protocol:
as §1, §2, §3

Another assay deals with PDE4D2 (Homo sapiens, UniProt Q08499). Particulars: read-out: PDE4D2; FP assay, Table 4. The protocol: as §1, §2, §3

Each structure is given as a SMILES string.

As for `COc1cc2c(cc1OC)-c1cc(N(c3c(C)cc(C)cc3C)C3CC(NC(N)=O)C3)nc(=O)n1CC2` (single isomer, unassigned) [Compound 4-1], the IC50 was over 40 nM at PDE3A, over 40 nM at PDE3B, 469 nM at PDE4B2 and 490 nM at PDE4D2.
In the case of `COc1cc2c(cc1OC)-c1cc(N(c3c(C(C)C)cc(C)cc3C(C)C)C(C)CNC(N)=O)nc(=O)n1CC2` (single isomer, unassigned) [Compound 23-1], the IC50 on PDE3A stood at 3.89 nM; on PDE3B, 6.94 nM; on PDE4B2, 11.6 nM; at PDE4D2, 3.87 nM.
The like results for `COc1cc2c(cc1OC)-c1cc(N(c3c(C)cc(C)cc3C)C3CC3CNC(N)=O)nc(=O)n1CC2` (single isomer, unassigned) [Compound 7-3] were, in that order, 0.0896 nM, 0.149 nM, 139 nM and 165 nM.
The corresponding values for `COc1cc2c(cc1OC)-c1cc(N(c3c(C)cc(C)cc3C)C(C)C)nc(=O)n1CC2` are 0.241 nM, 0.165 nM, 814 nM and 199 nM.
On to `COc1cc2c(cc1OC)-c1cc(N(c3c(C)cc(C)cc3C)C3CC3CNC(N)=O)nc(=O)n1CC2` (single isomer, unassigned) [Compound 7-2], for which the IC50 at PDE3A is 0.114 nM; at PDE3B it was 0.256 nM; on PDE4B2, 205 nM; on PDE4D2, 277 nM.
In the case of `COc1cc2c(cc1OC)-c1cc(N(c3c(C)cc(C)cc3C)C(C)CNC(=O)NC3CC3)nc(=O)n1CC2` (centres unmarked), the IC50 at PDE3A is 0.0822 nM; on PDE3B, 0.118 nM; at PDE4B2, 122 nM; on PDE4D2, 115 nM.
With `COc1cc2c(cc1OC)-c1cc(N(c3c(C)cc(C)cc3C)C3CCN(C(N)=O)CC3)nc(=O)n1CC2`, the IC50 is 0.0695 nM at PDE3A, 0.0883 nM on PDE3B, 29.2 nM at PDE4B2 and 23.3 nM on PDE4D2.
For the compound `CCC(CNC(N)=O)N(c1cc2n(c(=O)n1)CCc1cc(OC)c(OC)cc1-2)c1c(C)cc(C)cc1C` (single isomer, unassigned) [Compound 15-1], the IC50 was 0.0796 nM on PDE3A, 0.0824 nM on PDE3B, 73.7 nM at PDE4B2 and 64.7 nM at PDE4D2.
As for `COc1cc2c(cc1OC)-c1cc(N(c3c(C(C)C)cc(C)cc3C(C)C)C3CC(NC(N)=O)C3)nc(=O)n1CC2` (centres unmarked), the IC50 turned out to be 6.06 nM at PDE3A, 17.8 nM at PDE3B, 44.1 nM on PDE4B2 and 30.7 nM at PDE4D2.
For `COc1cc2c(cc1OC)-c1cc(N(CCCNC(N)=O)c3c(C)cc(C)cc3C)nc(=O)n1CC2`, the IC50 turned out to be 1210 nM on PDE3A, 973 nM at PDE3B, 3070 nM on PDE4B2 and 1810 nM on PDE4D2.
The corresponding values for `[2H]C([2H])([2H])Oc1cc2c(cc1OC([2H])([2H])[2H])-c1cc(N(c3c(C)cc(C)cc3C)C(C)CNC(N)=O)nc(=O)n1CC2` (centres unmarked) are 0.114 nM, 0.106 nM, 52.4 nM and 41.8 nM.
In the case of `COc1cc2c(cc1OC)-c1cc(N(c3c(C)cc(C)cc3C)C(C)CNC(=O)c3ccccc3)nc(=O)n1CC2` (centres unmarked), the IC50 amounted to 0.172 nM at PDE3A, 0.461 nM at PDE3B, 26.6 nM on PDE4B2 and 15.6 nM on PDE4D2.
The corresponding values for `COc1cc2c(cc1OC)-c1cc(N(c3c(C)cc(C)cc3C)C(C)CNC(=O)c3n[nH]nc3C)nc(=O)n1CC2` (single isomer, unassigned) are 0.126 nM, 0.101 nM, 1.23 nM and 1.42 nM.
The like results for `COc1cc2c(cc1OC)-c1cc(N(c3c(C)cc(C)cc3C)C(C)CNC(=O)c3cccc(C)n3)nc(=O)n1CC2` (centres unmarked) were, in that order, 0.114 nM, 0.126 nM, 1.4 nM and 0.831 nM.
